Assay: in vivo
Conditions: mouse, mice, oral, observed one week, read-out: average lethal dose (LD50), Oral Route
Protocol: 1. determination of the acute toxicity:
The acute toxicity has been determined on batches of ten mice weighing from 18 to 22 gm. The products were administered in suspension in gum arabic solution in water, at increasing doses, either by oral route or by intraperitoneal route.
The animals are kept under observation for one week. The average lethal dose (LD50) is determined graphically by the method of Dragstedt and Lang.
The acute toxicity was determined on batches of ten mice weighing from 18 to 22 gm. Ethyl 2-n-propyl-thiazole-4-carboxylate was administered in suspension in gum arabic solution in water, at increasing doses by the intraperitoneal route. The animals were kept under observation for one week. The average lethal dose (LD50) was determined graphically by the method of Dragstedt and Lang.

Structure (SMILES): Cc1ncc(C(=O)O)s1 [2-methyl-5-thiazolecarboxylic acid]
- LD50 at 168 h: > 2000 mg/kg

— US4045567A, “2-Alkyl-5-thiazole-carboxylic acid derivatives in hypolipemiant compositions” (Roussel Uclaf, priority 1969, dated 1977)
